## AlphaSeq binding of Ab-14 light chain variants to a spike HR2 peptide

Reference: Engelhart et al. 2022, doi:10.1038/s41597-022-01779-4. File: FLAb, binding data.

All variants were tested on one target, the spike HR2 peptide PDVDLGDISGINAS (SARS-CoV-2).

Parent: Ab-14, a human scFv built as VH, a (GGGGS)3 linker, VL. Only the CDRs of the light chain vary.
VH: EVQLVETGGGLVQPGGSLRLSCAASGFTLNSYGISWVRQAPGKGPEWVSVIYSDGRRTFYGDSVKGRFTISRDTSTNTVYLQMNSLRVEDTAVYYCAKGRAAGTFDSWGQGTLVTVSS
VL: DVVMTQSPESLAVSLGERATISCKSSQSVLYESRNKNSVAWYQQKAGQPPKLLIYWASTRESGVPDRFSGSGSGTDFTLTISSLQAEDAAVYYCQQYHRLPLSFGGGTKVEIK

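Phage display of a naive human antibody library on the peptide gave the parent. AAYL50 was designed without a model: most single CDR substitutions and a random sample of double and triple ones. In AlphaSeq, yeast of one mating type display the scFv and yeast of the other type display the target. Mating (16 h, 30 °C) was followed by selection of diploids and sequencing of their barcodes. Each replicate has its own calibration line, from reference interactions of the BCL2 family. Mating was done three times.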

Positions count from residue 1 of the parent VL; S26F puts F in place of S.
Scale: log10 of Kd in nM, estimated from mating counts; low values are strong binders.
A mean of the replicates is given; it leaves out those without a signal.
"no signal" means that the variant was in the library but no mating with the target was seen in any replicate; the authors take this as a sign of poor binding, and no number exists.
Parent in this assay: reference entry 0.65, copy in this library 1.68.
As a blank, each scFv also met three strains without target: over library AAYL50, 18% of these pairings were detected, typically at 4.19 and seldom below 2.99.

mean log10 Kd (nM)	detected	changes
no signal	0/3	S26F R34A Y97D
no signal	0/3	Y31P A40L H98Y
no signal	0/3	S26V S38V T59V
1.30	3/3	Y31K R34H E61S
0.46	3/3	V29T S33E S62E
no signal	0/3	Y97S L100K P101K
no signal	0/3	L30K K36P W56K
no signal	0/3	Q27S W56N H98E
no signal	0/3	Q95R Y97W H98W
4.28	2/3	V39E A40C R60M
no signal	0/3	Q27P T59A Q96Y
0.28	3/3	Y31G A57G
no signal	0/3	Y31W Y97A R99V
3.68	2/3	S38H E61K L100N
0.80	3/3	S28P A57T L100G
1.42	3/3	S26H Q27M
no signal	0/3	L30P T59I E61I
no signal	0/3	V29Y R60H L100D
no signal	0/3	V29R A40Y S58A
no signal	0/3	Y31H A57Y E61T
4.04	2/3	K24Q R99G
no signal	0/3	R34K S58Y H98P
0.54	3/3	S25L W56R Y97G
no signal	0/3	R34D A40Y S62T
3.33	1/3	S33R A40D
0.77	3/3	S25T N37Q V39I
1.19	3/3	K24T Q27H S62V
no signal	0/3	K24L A40K T59P
3.85	3/3	S38H Y97T R99P
6.28	1/3	A40E W56I S62A
3.41	3/3	K24E L100D
2.02	3/3	K24S L30A Q95E
1.08	3/3	W56N E61W S103F
4.49	3/3	Q27W R60Y S62R
4.86	3/3	Q27C A40M P101L
3.82	3/3	T59H S103W
no signal	0/3	R34P A57Y S103A
3.57	1/3	S33K S38T A40P
5.10	3/3	K24A W56V Q96L
2.89	1/3	L30Q E32Q S38T
5.90	1/3	K36V Y97R H98P
4.78	1/3	E32R A57S
2.49	3/3	Q27C V29C S103Q
1.17	3/3	N37Y S62W
0.76	3/3	Q27A N37I W56H
1.35	3/3	N35W Y97S L102R
no signal	0/3	K24T S58L L102Y
no signal	0/3	A40C T59S H98W
no signal	0/3	Q27R S28V V39H
4.17	1/3	S33L Q95W H98K
no signal	0/3	V29R R60H P101M
no signal	0/3	A40S L100Q P101V
1.40	3/3	Q27F L100S
4.01	2/3	A57I S103H
no signal	0/3	N37Q V39A S62V
2.50	3/3	Y31Q R99D L100W
3.64	2/3	S33P N37D R60Q
4.93	1/3	E32Q R60W Y97E
1.79	3/3	R34F E61W Y97F
1.82	3/3	S25N L102E S103G
3.51	2/3	E32Y N37I A57E
no signal	0/3	S38K S58W R99M
0.71	3/3	S25V N37Q Q96T
3.90	1/3	N37P Q95S S103I
no signal	0/3	S25H V39R L100K
no signal	0/3	Y97N P101W S103H
1.44	3/3	K24V L30V S103F